## Yeast mating assay 1: variants of the scFv Ab-14

All variants were tested on one target, the spike HR2 peptide PDVDLGDISGINAS (SARS-CoV-2).

Parent scFv Ab-14: VH joined to VL by a 15-residue (Gly4Ser)3 linker. Changes lie in the heavy chain CDRs alone.
VH: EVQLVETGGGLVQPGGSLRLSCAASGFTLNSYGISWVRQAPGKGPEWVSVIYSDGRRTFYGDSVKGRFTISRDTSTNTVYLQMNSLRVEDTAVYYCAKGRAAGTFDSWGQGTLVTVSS
VL: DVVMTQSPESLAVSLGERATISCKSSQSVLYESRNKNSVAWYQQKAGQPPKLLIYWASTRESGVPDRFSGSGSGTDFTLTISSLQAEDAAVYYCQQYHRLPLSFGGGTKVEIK

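The starting antibody came from a phage panning campaign against this peptide. The library (AAYL49) carries one to three amino acid substitutions per variant, with no insertions or deletions. In AlphaSeq, yeast of one mating type display the scFv and yeast of the other type display the target. Pairs that bind mate more often; barcode pairs of the diploids are counted by sequencing. Read counts were normalised to the haploid input and turned into Kd by a linear fit to BCL2-family pairs of known affinity, for each replicate. Each pool was mated in three replicate cultures.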

Substitutions are numbered in sequence along the VH above, starting at 1 (not Kabat). Scale: log10 of Kd in nM, estimated from mating counts; low values are strong binders. An entry "nd" has no value in the source: the pair was not observed among the diploids in that replicate. This suggests poor binding but is not conclusive. Parent in this assay: reference entry 0.65, copy in this library 4.11 (one replicate of three).

| changes | log10 Kd, replicates | control signals |
|---|---|---|
| V50P S63E D106G | 5.71 / nd / nd | 2/9 (3.27) |
| S35M V50G Y60I | nd / nd / nd | 0/9 |
| D54L Y60C T104M | nd / nd / nd | 1/9 (5.44) |
| L29D R56M R57F | nd / nd / nd | 0/9 |
| Y52H S63R S107F | nd / nd / nd | 0/9 |
| R57K T58C R100S | 0.55 / 0.50 / 0.57 | 1/9 (2.86) |
| S63G R100S F105Q | 0.89 / 1.03 / 0.73 | 0/9 |
| T28P | 0.63 / 1.00 / 0.93 | 2/9 (3.55) |
| G26H F59R V64C | nd / nd / nd | 0/9 |
| Y60W G61S A102M | nd / nd / nd | 1/9 (4.63) |
| S35L R100N S107R | 6.67 / 5.00 / nd | 2/9 (4.76) |
| I51F Y60C S63V | nd / nd / nd | 1/9 (2.99) |
| V50D Y52N T58F | nd / 3.78 / nd | 4/9 (3.77) |
| I34Q G61F S63P | nd / nd / nd | 1/9 (3.01) |
| T28S V50N R57M | 4.86 / 4.75 / 4.04 | 6/9 (4.93) |
| S31I V50K F59E | nd / nd / nd | 0/9 |
| Y52N G55W K65V | nd / nd / nd | 2/9 (5.03) |
| G61D A101I G103K | nd / nd / nd | 0/9 |
| L29H G33V S53K | nd / nd / nd | 1/9 (3.33) |
| Y32I T58M R100D | 1.83 / 2.19 / 2.01 | 0/9 |
| F27R Y52F | nd / nd / nd | 0/9 |
| T28C S31G G99V | nd / nd / nd | 0/9 |
| G33T I51W F105G | nd / nd / nd | 0/9 |
| N30C G33D K65S | 2.64 / 2.48 / 2.77 | 1/9 (4.27) |
| Y32V S35L R100H | 3.71 / 4.06 / nd | 0/9 |
| S53F R57L F105T | nd / nd / nd | 2/9 (3.47) |
| G26Y T28R G103Q | nd / nd / nd | 2/9 (3.81) |
| S35P F59P A102R | nd / nd / nd | 1/9 (3.22) |
| T28W D62G A101M | 3.29 / 2.77 / 2.70 | 0/9 |
| G33A G61L F105M | 5.89 / nd / nd | 2/9 (3.59) |
| R56G | 3.40 / 5.49 / 3.15 | 1/9 (4.43) |
| L29N S63E V64N | 4.14 / 4.62 / 3.83 | 8/9 (4.34) |
| R56D A102C F105Y | nd / nd / nd | 0/9 |
| S35V I51V R100T | nd / nd / nd | 0/9 |
| F27D N30Y A102C | nd / nd / nd | 1/9 (3.61) |
| Y32I V50Y F59Y | nd / nd / nd | 0/9 |
| T28E R56G | 1.06 / 1.31 / 1.31 | 2/9 (3.70) |
| S35H D62E V64I | 2.41 / 2.37 / 2.53 | 0/9 |
| F27L L29Q R56V | nd / nd / nd | 0/9 |
| F27Y Y52L R56W | nd / nd / nd | 2/9 (3.31) |
| G33F R57L K65Q | nd / nd / 4.10 | 1/9 (3.73) |
| T58E G61M | 2.39 / 1.99 / 2.01 | 1/9 (3.52) |
| I51W S53R A101E | nd / 3.95 / nd | 1/9 (3.17) |
| T28H V50W T58R | nd / nd / nd | 1/9 (5.19) |
| S31V D54S K65T | nd / nd / nd | 4/9 (3.09) |
| I51Q S53A | 2.92 / 2.30 / 3.97 | 1/9 (4.01) |
| T28R T104E S107W | nd / nd / nd | 1/9 (5.28) |
| T28Q F59E S63P | 1.35 / 1.11 / 1.30 | 0/9 |
| F27K I51F V64P | nd / nd / 3.93 | 2/9 (3.84) |
| F59L A102D S107N | 3.11 / nd / nd | 2/9 (3.73) |
| Y32P I34T V64K | nd / nd / nd | 2/9 (3.76) |

The last 3 entries again:

changes,"log10 Kd, replicates",control signals
F27K I51F V64P,nd / nd / 3.93,2/9 (3.84)
F59L A102D S107N,3.11 / nd / nd,2/9 (3.73)
Y32P I34T V64K,nd / nd / nd,2/9 (3.76)

Empty control strains, which show no peptide, gave a signal in 15% of pairings with library AAYL49; the median was 4.06 and 95% of these signals were weaker than 2.83. No background was subtracted. For each scFv, signals with the empty controls are counted beside the result, with their mean in brackets.

The measurements come from Engelhart et al. 2022 (doi:10.1038/s41597-022-01779-4) through the FLAb antibody collection.